Target: Muscarinic acetylcholine receptor M1 (Rattus norvegicus, UniProt P08482)

Sequences of proteins named here, by UniProt entry; tags and fusion partners are left off. A change or cut given only in a name is not applied to a line headed by its entry.
UniProt P08482: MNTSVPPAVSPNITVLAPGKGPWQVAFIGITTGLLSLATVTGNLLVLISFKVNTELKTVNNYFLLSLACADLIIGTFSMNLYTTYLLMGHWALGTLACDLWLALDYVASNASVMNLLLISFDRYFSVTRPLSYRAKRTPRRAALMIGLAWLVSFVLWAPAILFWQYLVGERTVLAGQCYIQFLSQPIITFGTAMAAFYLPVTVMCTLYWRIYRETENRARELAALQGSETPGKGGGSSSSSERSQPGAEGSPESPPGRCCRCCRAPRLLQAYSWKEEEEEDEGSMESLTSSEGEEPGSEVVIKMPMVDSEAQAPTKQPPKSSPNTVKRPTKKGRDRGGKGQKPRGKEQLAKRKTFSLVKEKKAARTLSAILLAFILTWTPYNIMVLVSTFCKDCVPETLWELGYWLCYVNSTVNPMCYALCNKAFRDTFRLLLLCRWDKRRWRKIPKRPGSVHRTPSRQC

- Ki: 0.016 µM
Compound: COc1ccccc1CNCCCCCCNCCCCCCCCNCCCCCCNCc1ccccc1OC [METHOCTRAMINE]

Reference: BindingDB's records for PubMed 2704370 (National Institute of Mental Health, 1989)
